# PubChem BioAssay AID624267 (The Scripps Research Institute Molecular Screening Center, 2012)
# Amino acid sequences for entries named in this document (tags omitted).
# UniProt O43353, whole entry: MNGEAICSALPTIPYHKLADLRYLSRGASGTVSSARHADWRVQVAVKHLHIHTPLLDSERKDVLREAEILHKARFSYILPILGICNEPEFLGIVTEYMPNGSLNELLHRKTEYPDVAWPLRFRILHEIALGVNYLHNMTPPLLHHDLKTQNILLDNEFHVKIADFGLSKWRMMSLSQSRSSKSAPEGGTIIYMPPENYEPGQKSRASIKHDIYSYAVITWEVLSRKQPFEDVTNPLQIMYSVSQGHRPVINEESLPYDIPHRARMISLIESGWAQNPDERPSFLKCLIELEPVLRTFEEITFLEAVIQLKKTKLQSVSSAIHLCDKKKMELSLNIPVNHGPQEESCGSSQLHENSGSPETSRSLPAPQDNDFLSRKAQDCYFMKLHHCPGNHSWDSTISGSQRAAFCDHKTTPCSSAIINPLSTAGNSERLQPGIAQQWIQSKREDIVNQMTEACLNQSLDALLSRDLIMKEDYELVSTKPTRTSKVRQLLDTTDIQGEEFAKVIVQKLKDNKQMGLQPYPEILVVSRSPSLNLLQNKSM
# The list shows a part of the results, in another mix than the full data. Some salts and complexes are drawn in separate pieces, as the source files them; their charges need not balance. The source made the active and inactive calls. Cut-off read from the data, not from the text of the source: active = inhibition above about 21%; inactive = the rest.
# Target: Receptor-interacting serine/threonine-protein kinase 2 (Homo sapiens) (UniProt O43353)
# Assay: inhibitors of RIPK2 association with NOD2 – fluorescence, CHO cells, BLA complementation, primary screen (AID 624267);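 note: 0% = vehicle only and 100% = reference blocker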
# Settings: CHO BLA complementation NOD2-RIPK2, CCF4 ratio; at 4.98 µM; active compounds read high
row,SMILES,inhibition
1,Cc1cc(-c2cccc3ccccc23)c(C)cn1.O=[N+]([O-])c1cc([N+](=O)[O-])c(O)c([N+](=O)[O-])c1,inactive: 1.41%
2,O=[N+]([O-])c1cc([N+](=O)[O-])c(NCC2CCS(=O)(=O)C2)c([N+](=O)[O-])c1 (configuration not stated),inactive: 0.04%
3,O=[N+]([O-])c1ccc(OP2(=O)COCCO2)cc1 (configuration not stated),inactive: -8.63%
4,COc1ccc(NP(C)(=O)Oc2ccccc2OC)cc1 (configuration not stated),inactive: -1.39%
5,CN(C)CCOC(=O)C(O)(c1ccccc1)C1CCCCC1 (configuration not stated),inactive: -0.56%
6,COc1ccc(OP(C)(=O)Nc2cccc(Br)c2)cc1 (configuration not stated),inactive: -6.65%
7,CCCCCOc1ccc(NP(C)(=O)Oc2ccc(Cl)cc2Cl)cc1 (configuration not stated),inactive: -10.3%
8,O=[N+]([O-])c1cc([N+](=O)[O-])c(OC2CCCCC2O)c([N+](=O)[O-])c1 (configuration not stated),inactive: -11.9%
9,CP(=O)(Nc1ccccc1)Oc1ccc(F)cc1 (configuration not stated),inactive: -3.23%
10,CCN(CC)CCCOC(=O)C(O)(c1ccccc1)C1CCCCC1 (configuration not stated),inactive: -1.11%
11,Cc1c([N+](=O)[O-])cc([N+](=O)[O-])c(Br)c1[N+](=O)[O-],inactive: 3.2%
12,COc1ccc(OP(C)(=O)Nc2ccc(SC(F)(F)F)cc2)cc1 (configuration not stated),inactive: 4.92%
13,CCOC(=O)c1ccc(NP(C)(=O)Oc2ccc(F)cc2)cc1 (configuration not stated),inactive: -3.87%
14,CCN(CC)CCCNc1ccccc1[N+](=O)[O-].O=[N+]([O-])c1cc([N+](=O)[O-])c(O)c([N+](=O)[O-])c1,inactive: -11.4%
15,COc1ccc2c(c1O)-c1c(O)c(OC)cc3c1[C@H](C2)[N+](C)(C)CC3.O=[N+]([O-])c1cc([N+](=O)[O-])c([O-])c([N+](=O)[O-])c1[O-],inactive: -10.4%
16,O=C(OCCN1CCN(CCOCc2ccccc2)CC1)C(O)(c1ccccc1)c1ccccc1,inactive: -7.28%
17,O=C(OC1CN2CCC1CC2)c1ccc([N+](=O)[O-])cc1 (configuration not stated),inactive: -0.42%
18,CC(C)c1ccc(OP(C)(=O)Nc2ccc(SC(F)(F)F)cc2)cc1 (configuration not stated),inactive: -7.07%
19,CP(=O)(Nc1ccccc1F)Oc1ccccc1 (configuration not stated),inactive: 8.54%
20,O=[N+]([O-])c1cc([N+](=O)[O-])c(Nc2ccc(Cl)cc2)c([N+](=O)[O-])c1,inactive: 3.82%
21,CCc1ccc(OP(C)(=O)O)cc1,inactive: -2.25%
22,COc1ccccc1OP(C)(=O)Nc1ccc(C)cc1C (configuration not stated),inactive: -1.53%
23,CP(=O)(Nc1ccccn1)Oc1ccccc1 (configuration not stated),inactive: 10.8%
24,Cc1c(NP(C)(=O)Oc2ccc(C(C)C)cc2)c(=O)n(-c2ccccc2)n1C (configuration not stated),inactive: 1.47%

row,SMILES,inhibition
1,O=[N+]([O-])c1cc([N+](=O)[O-])c(Nc2ccccn2)c([N+](=O)[O-])c1,inactive: 14.5%
2,CN(C)CCOC(=O)C(O)(c1ccccc1)C1CCCC1 (configuration not stated),inactive: -17.5%
3,COc1ccc(OP(C)(=O)Nc2ccccn2)cc1 (configuration not stated),inactive: -13.9%
4,COc1ccccc1OP(C)(=O)Nc1ccc(Br)cc1 (configuration not stated),inactive: 2.84%
5,CCCCCCCCCCCCCCCC1C[N+](C)(C)CCOP(C)(=O)O1 (configuration not stated),inactive: 14.7%
6,CP(=O)(Nc1ccc(Cl)cc1Cl)Oc1ccccc1 (configuration not stated),inactive: -11.7%
7,CP(=O)(OCCOc1ccccc1)OCCOc1ccccc1,inactive: -6.93%
8,COc1ccc(OP(C)(=O)Nc2ccccc2Br)cc1 (configuration not stated),inactive: -20.5%
9,COc1ccccc1OP(C)(=O)Nc1ccc(C)c(C)c1 (configuration not stated),inactive: -5.3%
10,Cc1cc(C)cc(OP(C)(=O)Nc2cccc(C(F)(F)F)c2)c1 (configuration not stated),inactive: -1.08%
11,O=C1C(O)=C([N+](=O)[O-])C(=O)C(O)=C1[N+](=O)[O-],inactive: -4.69%
12,CP(=O)(OC12CC3CC(CC(C3)C1)C2)OC12CC3CC(CC(C3)C1)C2,inactive: -1.09%
13,CCOC(=O)c1ccc(NP(C)(=O)Oc2ccc(Cl)cc2)cc1 (configuration not stated),inactive: 4.59%
14,CN(C)C(=O)c1c([N+](=O)[O-])cc([N+](=O)[O-])cc1[N+](=O)[O-],inactive: -21.9%
15,CP(=O)(Nc1ccc(Cl)cc1)Oc1ccc(F)cc1 (configuration not stated),inactive: -2.65%
16,COc1ccccc1OP(C)(=O)Nc1ccccc1Br (configuration not stated),inactive: 4.49%
17,CC(C)(C)c1ccc(OP(C)(=O)O)cc1,inactive: -18.1%
18,CCc1ccc(OP(C)(=O)Nc2cccnc2)cc1 (configuration not stated),inactive: -20.5%
19,CP(=O)(Oc1ccccc1)N1CCOC1=O (configuration not stated),inactive: 14%
20,O=C(OCCCN1CCCC1)C(O)(c1ccccc1)C1CCCCC1 (configuration not stated),inactive: -4.2%
21,COc1ccccc1OP(C)(=O)Nc1c(C)n(C)n(-c2ccccc2)c1=O (configuration not stated),inactive: -0.88%
22,COc1ccc(OP(C)(=O)Nc2ccc(Br)cc2)cc1 (configuration not stated),inactive: 2.41%
23,CCN(CC)CC(O)COC(=O)C(O)(c1ccccc1)C1CCCCC1 (configuration not stated),inactive: -1.36%
